These are literature values, as cited in PMC4764904, “Development of Spexin-based Human Galanin Receptor Type II-Specific Agonists with Increased Stability in Serum and Anxiolytic Effect in Mice” (Scientific Reports, 2016).

The test system of the data set is GALR1. Also noted: method as in PMID 24517231. Particulars: cited from earlier work.

Consider galanin, for which the “Action at GALR1 (in words)” value is “activates all three receptor subtypes”.
